Patent publication US7456147B2, “Controlled release of active agents utilizing repeat sequence protein polymers” (Dow Corning, Corporation, priority 2003, dated 2008)
Read-outs that look alike come from different tables or passages of the source.

Substance: glucose oxidase [Gox]
- degradation of the enzyme on storage (17 hours at 37° C. and 28 hours at room temperature): No degradation of the enzyme was observed
- Gox activity after storage (after 17 hours at 37° C.): 66.59 mg/mL
- Gox activity after storage (after 28 hours at room temperature): 66.75 mg/mL
